Tests used:
[1] = target: Delta-type opioid receptor (Homo sapiens) (UniProt P41143); experiment: Inhibition of human DOP at 10 uM by agonist radioligand based assay relative to control
[2] = target: Acetylcholinesterase (Homo sapiens) (UniProt P22303); experiment: Inhibition of human recombinant acetylcholinesterase using acetylthiocholine as substrate at 10 uM by spectrophotometric analysis relative to control
[3] = target: Histamine H1 receptor (Homo sapiens) (UniProt P35367); experiment: Displacement of [3H]pyrilamine from human recombinant histamine H1 receptor assessed as inhibition at 10 uM by scintillation analysis relative to control
[4] = target: Mu-type opioid receptor (Homo sapiens) (UniProt P35372); experiment: Displacement of [3H]DAMGO from human recombinant MOP assessed as inhibition at 10 uM by scintillation analysis relative to control
[5] = target: 5-hydroxytryptamine receptor 1A (Homo sapiens) (UniProt P08908); experiment: Displacement of [3H]8-OH-DPAT from human recombinant 5-HT1A receptor assessed as inhibition at 10 uM by scintillation analysis relative to control
[6] = target: Adenosine receptor A2a (Homo sapiens) (UniProt P29274); experiment: Displacement of [3H]CGS-21680 from human recombinant A2A receptor assessed as inhibition at 10 uM by scintillation analysis relative to control
[7] = target: 3',5'-cyclic-AMP phosphodiesterase 4D (Homo sapiens) (UniProt Q08499); experiment: Inhibition of human recombinant PDE4D2 using FAM-cAMP as substrate at 10 uM spectrofluorimetric analysis relative to control
[8] = target: Endothelin-1 receptor (Homo sapiens) (UniProt P25101); experiment: Displacement of [125I]endothelin-1 from human recombinant ETA receptor assessed as inhibition at 10 uM by scintillation analysis relative to control
[9] = target: Histamine H2 receptor (Homo sapiens) (UniProt P25021); experiment: Displacement of [125I]APT from human recombinant histamine H2 receptor assessed as inhibition at 10 uM by scintillation analysis relative to control
[10] = target: Prostaglandin G/H synthase 2 (Homo sapiens) (UniProt P35354); experiment: Inhibition of human COX2 using arachidonic acid and ADHP as substrate at 10 uM by spectrofluorimetric analysis relative to control
[11] = target: Neuronal acetylcholine receptor; alpha4/beta2 (Homo sapiens) (UniProt P17787+P43681); experiment: Inhibition of human neuronal alpha4beta2 receptor at 10 uM by agonist radioligand based assay relative to control; format: protein-complex assay
[12] = target: Cholecystokinin receptor type A (Homo sapiens) (UniProt P32238); experiment: Displacement of [125I]CCK-8 from human recombinant CCK1 receptor assessed as inhibition at 10 uM by scintillation analysis relative to control
[13] = target: Sodium-dependent noradrenaline transporter (Homo sapiens) (UniProt P23975); experiment: Displacement of radioligand human recombinant norepinephrine transporter assessed as inhibition at 10 uM by scintillation analysis relative to control
[14] = target: Sodium-dependent dopamine transporter (Homo sapiens) (UniProt Q01959); experiment: Displacement of radioligand from human recombinant DAT transporter assessed as inhibition at 10 uM by scintillation analysis relative to control
[15] = target: 5-hydroxytryptamine receptor 2A (Homo sapiens) (UniProt P28223); experiment: Displacement of [125I] (+/-) DOI from human recombinant 5-HT2A assessed as inhibition at 10 uM by scintillation analysis relative to control
[16] = target: 5-hydroxytryptamine receptor 1B (Homo sapiens) (UniProt P28222); experiment: Displacement of [3H]GR125743 from human recombinant 5-HT1B receptor assessed as inhibition at 10 uM by scintillation analysis relative to control
[17] = target: Kappa-type opioid receptor (Homo sapiens) (UniProt P41145); experiment: Displacement of [3H]U-69593 from human KOP assessed as inhibition at 10 uM in by scintillation analysis relative to control
[18] = target: 5-hydroxytryptamine receptor 2B (Homo sapiens) (UniProt P41595); experiment: Displacement of radioligand from human recombinant 5-HT2B receptor assessed as inhibition at 10 uM by scintillation analysis relative to control
[19] = target: Tyrosine-protein kinase Lck (Homo sapiens) (UniProt P06239); experiment: Inhibition of human Lck kinase at 10 uM relative to control
[20] = target: Muscarinic acetylcholine receptor M3 (Homo sapiens) (UniProt P20309); experiment: Displacement of radioligand from human recombinant muscarinic M3 receptor assessed as inhibition at 10 uM by scintillation analysis relative to control
[21] = target: Sodium-dependent serotonin transporter (Homo sapiens) (UniProt P31645); experiment: Inhibition of human 5-HT transporter at 10 uM by antagonist radioligand based assay relative to control
[22] = target: Glucocorticoid receptor (Homo sapiens) (UniProt P04150); experiment: Displacement of [3H]dexamethasone from human GR receptor assessed as inhibition at 10 uM by scintillation analysis relative to control
[23] = target: Vasopressin V1a receptor (Homo sapiens) (UniProt P37288); experiment: Displacement of [3H]AVP from human recombinant V1a receptor assessed as inhibition at 10 uM by scintillation analysis relative to control
[24] = target: Alpha-2A adrenergic receptor (Homo sapiens) (UniProt P08913); experiment: Displacement of radioligand from human recombinant alpha 2A adrenergic receptor assessed as inhibition at 10 uM by scintillation analysis relative to control
[25] = target: Beta-2 adrenergic receptor (Homo sapiens) (UniProt P07550); experiment: Displacement of [3H]CGP-12177 from human recombinant beta 2 adrenergic receptor assessed as inhibition at 10 uM by scintillation analysis relative to control
[26] = target: cGMP-inhibited 3',5'-cyclic phosphodiesterase 3A (Homo sapiens) (UniProt Q14432); experiment: Inhibition of human recombinant PDE3A using FAM-cAMP as substrate at 10 uM by spectrofluorimetric analysis relative to control
[27] = target: Glutamate [NMDA] receptor (Homo sapiens) (UniProt Q05586+Q12879+Q13224+O15399+O60391+Q14957+Q8TCU5); experiment: Inhibition of NMDA receptor (unknown origin) at 10 uM by antagonist radioligand based assay relative to control; format: protein-complex assay
[28] = target: Prostaglandin G/H synthase 1 (Homo sapiens) (UniProt P23219); experiment: Inhibition of human recombinant COX1 using arachidonic acid and ADHP as substrate at 10 uM by spectrofluorimetric analysis relative to control
[29] = target: Alpha-1A adrenergic receptor (Homo sapiens) (UniProt P35348); experiment: Displacement of [3H]Prazosin from human alpha 1A adrenergic receptor assessed as inhibition at 10 uM by scintillation analysis relative to control
[30] = target: Cannabinoid receptor 2 (Homo sapiens) (UniProt P34972); experiment: Displacement of [3H]WIN 55212-2 from human recombinant CB2 receptor assessed as inhibition at 10 uM by scintillation analysis relative to control

Chains of the proteins cited; added tags and fusions are not shown. Lines headed by an entry give the natural chain unless they say otherwise; changes in a name come on top.
UniProt P22303: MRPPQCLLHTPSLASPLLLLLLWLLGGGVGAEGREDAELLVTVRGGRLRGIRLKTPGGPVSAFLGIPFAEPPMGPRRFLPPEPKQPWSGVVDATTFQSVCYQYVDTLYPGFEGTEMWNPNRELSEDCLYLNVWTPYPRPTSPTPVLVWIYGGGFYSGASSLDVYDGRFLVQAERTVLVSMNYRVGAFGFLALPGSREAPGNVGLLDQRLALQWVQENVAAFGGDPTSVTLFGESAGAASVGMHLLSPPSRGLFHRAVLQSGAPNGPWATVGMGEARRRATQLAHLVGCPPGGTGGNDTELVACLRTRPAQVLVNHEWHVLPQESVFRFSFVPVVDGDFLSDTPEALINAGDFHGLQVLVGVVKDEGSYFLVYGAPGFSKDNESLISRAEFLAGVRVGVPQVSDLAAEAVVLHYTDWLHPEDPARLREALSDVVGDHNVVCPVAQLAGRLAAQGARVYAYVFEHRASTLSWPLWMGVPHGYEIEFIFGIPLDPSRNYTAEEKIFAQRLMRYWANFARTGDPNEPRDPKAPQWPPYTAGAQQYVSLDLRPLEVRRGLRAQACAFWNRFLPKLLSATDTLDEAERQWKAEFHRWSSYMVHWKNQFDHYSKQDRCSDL
UniProt P35367, whole entry: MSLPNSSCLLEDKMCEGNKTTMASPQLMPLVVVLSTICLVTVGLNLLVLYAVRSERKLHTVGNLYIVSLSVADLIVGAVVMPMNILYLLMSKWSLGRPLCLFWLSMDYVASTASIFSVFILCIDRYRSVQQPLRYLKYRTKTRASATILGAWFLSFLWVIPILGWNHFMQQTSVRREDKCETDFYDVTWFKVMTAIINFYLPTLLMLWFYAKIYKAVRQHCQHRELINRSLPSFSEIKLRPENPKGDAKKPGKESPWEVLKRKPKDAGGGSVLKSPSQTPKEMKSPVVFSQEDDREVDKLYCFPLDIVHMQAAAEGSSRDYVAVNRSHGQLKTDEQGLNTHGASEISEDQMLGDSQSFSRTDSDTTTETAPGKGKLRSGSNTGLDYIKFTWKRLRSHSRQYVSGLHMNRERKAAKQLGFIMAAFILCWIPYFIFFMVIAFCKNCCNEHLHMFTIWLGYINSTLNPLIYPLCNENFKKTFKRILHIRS
UniProt P25021, whole entry: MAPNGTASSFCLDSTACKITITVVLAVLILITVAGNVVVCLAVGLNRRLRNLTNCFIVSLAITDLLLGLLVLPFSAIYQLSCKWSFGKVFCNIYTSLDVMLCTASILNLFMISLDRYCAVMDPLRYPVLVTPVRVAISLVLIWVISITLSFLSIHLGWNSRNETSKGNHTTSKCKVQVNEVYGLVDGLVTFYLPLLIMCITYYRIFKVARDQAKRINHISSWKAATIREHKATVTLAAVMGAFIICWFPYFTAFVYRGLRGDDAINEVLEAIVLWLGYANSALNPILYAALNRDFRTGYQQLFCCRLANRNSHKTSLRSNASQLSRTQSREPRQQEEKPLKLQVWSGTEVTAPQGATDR
UniProt Q01959, whole entry: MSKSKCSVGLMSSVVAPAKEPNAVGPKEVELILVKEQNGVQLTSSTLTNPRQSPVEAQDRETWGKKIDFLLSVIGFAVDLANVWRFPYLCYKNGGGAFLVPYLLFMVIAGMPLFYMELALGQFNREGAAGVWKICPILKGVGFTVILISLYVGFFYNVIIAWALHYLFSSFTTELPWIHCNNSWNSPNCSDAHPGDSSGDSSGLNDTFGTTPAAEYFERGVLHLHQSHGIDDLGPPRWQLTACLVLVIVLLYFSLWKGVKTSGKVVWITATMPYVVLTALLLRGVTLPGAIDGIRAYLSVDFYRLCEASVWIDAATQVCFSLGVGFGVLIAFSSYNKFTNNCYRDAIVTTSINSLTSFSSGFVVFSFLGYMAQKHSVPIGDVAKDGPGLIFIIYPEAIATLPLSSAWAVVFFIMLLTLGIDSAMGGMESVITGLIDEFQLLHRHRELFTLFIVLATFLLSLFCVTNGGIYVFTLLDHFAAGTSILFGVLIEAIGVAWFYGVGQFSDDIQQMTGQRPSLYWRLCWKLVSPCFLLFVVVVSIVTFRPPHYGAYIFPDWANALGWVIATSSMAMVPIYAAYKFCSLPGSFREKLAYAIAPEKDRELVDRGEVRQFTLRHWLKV
UniProt P41145: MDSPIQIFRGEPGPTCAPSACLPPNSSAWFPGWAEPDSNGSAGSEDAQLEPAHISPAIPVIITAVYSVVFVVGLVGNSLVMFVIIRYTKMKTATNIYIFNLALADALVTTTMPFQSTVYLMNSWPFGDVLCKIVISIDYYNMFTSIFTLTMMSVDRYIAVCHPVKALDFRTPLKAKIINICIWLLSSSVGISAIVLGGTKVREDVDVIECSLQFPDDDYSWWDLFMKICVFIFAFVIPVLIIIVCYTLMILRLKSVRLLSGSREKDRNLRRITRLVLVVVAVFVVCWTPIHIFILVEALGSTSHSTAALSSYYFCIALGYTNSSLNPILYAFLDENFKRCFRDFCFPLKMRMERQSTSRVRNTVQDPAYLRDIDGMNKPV
UniProt P37288, whole entry, looked up: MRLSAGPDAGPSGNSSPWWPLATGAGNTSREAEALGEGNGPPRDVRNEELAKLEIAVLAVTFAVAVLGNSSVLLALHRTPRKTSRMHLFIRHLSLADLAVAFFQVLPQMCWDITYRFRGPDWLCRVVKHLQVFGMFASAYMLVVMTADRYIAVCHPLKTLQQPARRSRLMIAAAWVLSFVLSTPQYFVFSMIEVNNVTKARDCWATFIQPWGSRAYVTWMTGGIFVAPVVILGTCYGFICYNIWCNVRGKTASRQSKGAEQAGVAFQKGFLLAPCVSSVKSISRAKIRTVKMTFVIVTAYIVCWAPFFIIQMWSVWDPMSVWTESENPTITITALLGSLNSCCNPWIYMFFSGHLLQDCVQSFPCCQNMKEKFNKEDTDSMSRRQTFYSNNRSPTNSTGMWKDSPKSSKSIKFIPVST
UniProt Q13224: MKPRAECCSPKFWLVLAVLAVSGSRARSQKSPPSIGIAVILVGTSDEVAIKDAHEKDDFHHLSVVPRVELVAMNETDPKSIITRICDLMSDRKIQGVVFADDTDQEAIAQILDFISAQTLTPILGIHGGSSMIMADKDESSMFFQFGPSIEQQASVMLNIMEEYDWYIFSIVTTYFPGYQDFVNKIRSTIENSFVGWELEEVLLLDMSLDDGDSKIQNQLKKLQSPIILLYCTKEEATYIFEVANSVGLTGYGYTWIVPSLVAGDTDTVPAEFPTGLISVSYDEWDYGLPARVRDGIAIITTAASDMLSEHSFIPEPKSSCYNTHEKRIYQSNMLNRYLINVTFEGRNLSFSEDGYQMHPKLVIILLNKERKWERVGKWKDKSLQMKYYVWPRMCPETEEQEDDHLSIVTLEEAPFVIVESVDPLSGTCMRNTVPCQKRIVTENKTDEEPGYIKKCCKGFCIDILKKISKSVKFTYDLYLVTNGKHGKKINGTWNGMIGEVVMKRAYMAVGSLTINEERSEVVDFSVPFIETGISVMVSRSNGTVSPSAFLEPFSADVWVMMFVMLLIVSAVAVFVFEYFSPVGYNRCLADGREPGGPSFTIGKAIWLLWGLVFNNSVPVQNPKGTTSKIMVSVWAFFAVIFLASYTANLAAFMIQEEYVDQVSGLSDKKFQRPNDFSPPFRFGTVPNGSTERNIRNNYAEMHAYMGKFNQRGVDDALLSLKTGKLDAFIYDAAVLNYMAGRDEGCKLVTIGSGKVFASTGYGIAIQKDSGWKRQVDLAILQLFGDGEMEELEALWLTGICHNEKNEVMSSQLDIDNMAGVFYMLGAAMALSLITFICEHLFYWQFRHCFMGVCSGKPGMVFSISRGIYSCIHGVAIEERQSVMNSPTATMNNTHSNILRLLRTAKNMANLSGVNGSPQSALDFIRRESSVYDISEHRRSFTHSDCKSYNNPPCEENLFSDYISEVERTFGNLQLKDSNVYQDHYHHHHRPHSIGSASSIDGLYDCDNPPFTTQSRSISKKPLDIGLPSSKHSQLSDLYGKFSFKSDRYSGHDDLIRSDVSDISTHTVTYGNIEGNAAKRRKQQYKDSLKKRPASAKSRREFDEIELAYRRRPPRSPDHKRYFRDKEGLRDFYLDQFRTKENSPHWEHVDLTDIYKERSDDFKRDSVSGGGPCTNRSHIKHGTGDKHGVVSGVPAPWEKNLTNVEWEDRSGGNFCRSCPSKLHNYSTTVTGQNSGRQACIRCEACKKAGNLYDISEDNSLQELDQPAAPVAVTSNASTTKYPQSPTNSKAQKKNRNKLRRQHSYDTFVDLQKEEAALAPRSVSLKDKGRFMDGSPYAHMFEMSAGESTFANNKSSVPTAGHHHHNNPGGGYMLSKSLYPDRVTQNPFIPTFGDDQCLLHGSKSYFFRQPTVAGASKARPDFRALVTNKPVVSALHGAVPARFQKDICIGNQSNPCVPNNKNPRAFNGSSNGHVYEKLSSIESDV
UniProt Q8TCU5: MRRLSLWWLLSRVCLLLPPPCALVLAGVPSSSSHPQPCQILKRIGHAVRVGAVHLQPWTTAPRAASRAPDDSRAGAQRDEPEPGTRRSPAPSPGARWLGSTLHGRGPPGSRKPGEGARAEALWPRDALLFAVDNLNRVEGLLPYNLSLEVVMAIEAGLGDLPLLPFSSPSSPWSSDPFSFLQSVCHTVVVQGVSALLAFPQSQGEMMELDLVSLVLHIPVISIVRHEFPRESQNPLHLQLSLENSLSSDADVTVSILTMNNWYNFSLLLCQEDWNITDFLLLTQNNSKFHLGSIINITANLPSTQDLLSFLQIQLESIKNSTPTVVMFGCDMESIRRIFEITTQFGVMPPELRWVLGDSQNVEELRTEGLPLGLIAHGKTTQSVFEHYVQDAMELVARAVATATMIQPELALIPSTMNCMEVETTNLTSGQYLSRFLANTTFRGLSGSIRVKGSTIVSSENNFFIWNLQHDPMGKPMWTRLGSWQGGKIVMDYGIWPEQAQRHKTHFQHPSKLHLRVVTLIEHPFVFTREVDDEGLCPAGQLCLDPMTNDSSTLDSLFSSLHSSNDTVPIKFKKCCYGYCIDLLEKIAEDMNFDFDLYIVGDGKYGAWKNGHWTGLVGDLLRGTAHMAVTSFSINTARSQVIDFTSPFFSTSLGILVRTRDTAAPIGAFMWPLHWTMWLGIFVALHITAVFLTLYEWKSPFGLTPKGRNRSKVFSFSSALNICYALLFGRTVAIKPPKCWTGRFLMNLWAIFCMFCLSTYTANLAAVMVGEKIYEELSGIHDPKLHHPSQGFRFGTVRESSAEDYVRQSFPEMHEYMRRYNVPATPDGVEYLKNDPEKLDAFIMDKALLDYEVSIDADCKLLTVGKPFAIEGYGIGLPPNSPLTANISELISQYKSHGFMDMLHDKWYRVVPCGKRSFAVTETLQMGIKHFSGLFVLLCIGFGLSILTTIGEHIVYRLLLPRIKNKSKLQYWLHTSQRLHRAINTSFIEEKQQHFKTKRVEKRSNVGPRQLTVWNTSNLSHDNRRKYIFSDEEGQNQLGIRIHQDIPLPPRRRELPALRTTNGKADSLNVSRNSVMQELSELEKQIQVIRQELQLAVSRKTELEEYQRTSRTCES
UniProt P23219, whole entry: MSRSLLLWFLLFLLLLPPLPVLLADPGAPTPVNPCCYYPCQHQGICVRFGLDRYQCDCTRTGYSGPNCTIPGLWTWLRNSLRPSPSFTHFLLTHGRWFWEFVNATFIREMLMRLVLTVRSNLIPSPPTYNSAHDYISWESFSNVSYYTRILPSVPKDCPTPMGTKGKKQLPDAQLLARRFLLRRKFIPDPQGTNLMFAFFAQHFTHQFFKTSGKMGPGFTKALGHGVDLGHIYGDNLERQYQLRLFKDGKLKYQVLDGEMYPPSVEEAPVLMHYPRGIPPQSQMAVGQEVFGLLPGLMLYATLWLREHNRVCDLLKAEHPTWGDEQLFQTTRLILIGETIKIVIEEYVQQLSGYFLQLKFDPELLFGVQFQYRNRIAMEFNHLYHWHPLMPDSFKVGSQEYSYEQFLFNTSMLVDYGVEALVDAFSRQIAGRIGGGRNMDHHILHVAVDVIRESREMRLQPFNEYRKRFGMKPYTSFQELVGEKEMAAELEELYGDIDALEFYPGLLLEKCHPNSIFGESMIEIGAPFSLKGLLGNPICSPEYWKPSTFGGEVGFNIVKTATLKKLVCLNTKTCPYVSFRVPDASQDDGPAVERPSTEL
UniProt P35348: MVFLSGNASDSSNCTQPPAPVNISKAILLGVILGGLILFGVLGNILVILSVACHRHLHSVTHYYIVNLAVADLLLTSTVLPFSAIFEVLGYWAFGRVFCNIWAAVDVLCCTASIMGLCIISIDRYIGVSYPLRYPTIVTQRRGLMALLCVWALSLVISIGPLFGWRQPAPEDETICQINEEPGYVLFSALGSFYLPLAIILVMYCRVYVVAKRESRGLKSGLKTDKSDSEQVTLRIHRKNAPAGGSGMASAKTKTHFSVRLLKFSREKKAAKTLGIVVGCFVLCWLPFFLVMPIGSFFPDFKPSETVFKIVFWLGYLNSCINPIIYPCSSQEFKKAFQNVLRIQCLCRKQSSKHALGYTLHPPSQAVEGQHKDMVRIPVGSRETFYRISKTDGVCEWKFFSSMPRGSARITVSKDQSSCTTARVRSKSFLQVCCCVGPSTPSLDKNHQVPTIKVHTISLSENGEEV

N#Cc1ccc2c(c1)CC[C@@H]2Nc1ccc2[nH]nc(-c3cnoc3)c2c1
inhibition [1]: 48.9% | inhibition [2]: -7.66% | inhibition [3]: 5.72% | inhibition [4]: 26.1% | inhibition [5]: 19.5% | inhibition [6]: 56% | inhibition [7]: 36.6% | inhibition [8]: -6.93% | inhibition (INH) [9]: -1.82 E^1% | inhibition [10]: 31.7% | inhibition [11]: -9.92% | inhibition [12]: 14% | inhibition [13]: 34% | inhibition [14]: 78.1% | inhibition [15]: 17.7% | inhibition (INH) [16]: -7.2 E^-1% | inhibition [17]: 32.7% | inhibition [18]: 68.8% | inhibition [19]: 4.17% | inhibition [20]: 1.3% | inhibition [21]: 51% | inhibition [22]: 33.4% | inhibition [23]: 0.524% | inhibition [24]: 2.3% | inhibition [25]: 32.8% | inhibition [26]: 37% | inhibition [27]: 14% | inhibition [28]: -5.72% | inhibition [29]: 32% | inhibition [30]: 2.62%
